Reference: ChEMBL document CHEMBL2029223, “Identification of a phenylacylsulfonamide series of dual Bcl-2/Bcl-xL antagonists” (Bioorg Med Chem Lett, 2012)

Amino acid sequences for entries named in this document (tags omitted).
UniProt Q07817, whole entry: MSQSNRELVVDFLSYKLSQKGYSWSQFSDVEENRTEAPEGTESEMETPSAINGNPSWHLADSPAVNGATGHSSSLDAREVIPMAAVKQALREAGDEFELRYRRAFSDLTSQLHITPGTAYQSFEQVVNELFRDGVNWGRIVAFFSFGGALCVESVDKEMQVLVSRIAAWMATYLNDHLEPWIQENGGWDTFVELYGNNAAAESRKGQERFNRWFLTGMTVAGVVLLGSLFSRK
UniProt P10415, whole entry: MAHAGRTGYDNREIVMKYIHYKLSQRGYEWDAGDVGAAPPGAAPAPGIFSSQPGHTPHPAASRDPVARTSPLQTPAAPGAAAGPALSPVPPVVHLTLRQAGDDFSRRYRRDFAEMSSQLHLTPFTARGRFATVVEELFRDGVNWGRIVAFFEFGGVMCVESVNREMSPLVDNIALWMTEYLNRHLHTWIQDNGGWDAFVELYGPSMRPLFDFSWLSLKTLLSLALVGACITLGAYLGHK

Key:
Bcl-2-like protein 1 = Bcl-2-like protein 1 (Homo sapiens, UniProt Q07817); test: Inhibition of Bcl-XL using fluoresceinated 18-mer Bim as substrate after 60 mins by FRET analysis
[1] = target: Apoptosis regulator Bcl-2 (Homo sapiens, UniProt P10415); test: Inhibition in GST-tagged Bcl2 using [FAM]-IWIAQELRRIGDEFNAYY-NH2 as substrate after 60 mins by fluorescence polarization assay

| Structure (SMILES) | IC50 (Bcl-2-like protein 1) | IC50 [1] |
| --- | --- | --- |
| CCCCN(CCCC)C(=O)c1nn(-c2ccc(C(=O)NS(=O)(=O)c3ccc4cccc(I)c4c3)cc2C(=O)N2CCc3ccccc3C2)c(C)c1Cl | 0.037 µM | 0.035 µM |
| CCCCN(CCCC)C(=O)c1nn(-c2ccc(C(=O)NS(=O)(=O)c3ccc4ccccc4c3)cc2C(=O)N2Cc3ccccc3C[C@H]2CO)c(C)c1Cl | 0.012 µM | – |
